From patent US20120157500A1, “JAK INHIBITION BLOCKS RNA INTERFERENCE ASSOCIATED TOXICITIES” (priority 2009, published 2012)

By UniProt entry, the sequences of proteins in these tests, tags left out.
UniProt O60674, whole entry: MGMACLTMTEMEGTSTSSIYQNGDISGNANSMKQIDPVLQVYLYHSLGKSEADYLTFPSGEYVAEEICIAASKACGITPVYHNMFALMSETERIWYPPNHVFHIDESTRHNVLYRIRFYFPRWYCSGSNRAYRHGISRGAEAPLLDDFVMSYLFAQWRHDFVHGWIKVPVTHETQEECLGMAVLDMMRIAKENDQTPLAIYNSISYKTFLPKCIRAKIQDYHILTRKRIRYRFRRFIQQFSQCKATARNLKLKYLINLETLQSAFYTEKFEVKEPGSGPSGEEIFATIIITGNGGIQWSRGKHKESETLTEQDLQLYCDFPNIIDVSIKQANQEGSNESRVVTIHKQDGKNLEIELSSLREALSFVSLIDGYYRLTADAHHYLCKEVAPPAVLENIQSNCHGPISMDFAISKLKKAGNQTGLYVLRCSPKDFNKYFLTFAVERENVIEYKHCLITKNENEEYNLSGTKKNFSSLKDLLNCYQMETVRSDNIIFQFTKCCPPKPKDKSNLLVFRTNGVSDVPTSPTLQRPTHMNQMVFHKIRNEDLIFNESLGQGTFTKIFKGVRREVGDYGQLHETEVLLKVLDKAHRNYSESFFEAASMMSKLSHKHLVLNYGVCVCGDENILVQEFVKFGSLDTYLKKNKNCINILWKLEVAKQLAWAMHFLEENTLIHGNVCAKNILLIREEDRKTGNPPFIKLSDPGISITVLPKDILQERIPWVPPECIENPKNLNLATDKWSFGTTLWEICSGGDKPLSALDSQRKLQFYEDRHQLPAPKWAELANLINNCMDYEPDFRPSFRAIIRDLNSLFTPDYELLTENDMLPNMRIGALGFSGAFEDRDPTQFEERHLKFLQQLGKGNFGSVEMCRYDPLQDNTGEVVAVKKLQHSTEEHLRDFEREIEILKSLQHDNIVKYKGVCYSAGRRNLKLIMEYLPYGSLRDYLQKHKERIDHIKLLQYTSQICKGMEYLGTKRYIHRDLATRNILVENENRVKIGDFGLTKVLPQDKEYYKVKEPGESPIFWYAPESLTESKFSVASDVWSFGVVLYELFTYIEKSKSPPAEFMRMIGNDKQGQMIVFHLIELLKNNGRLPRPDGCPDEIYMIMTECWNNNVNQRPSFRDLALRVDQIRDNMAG

What was measured:
[1] = system: Jak2-mediated phosphorylation of STAT5; experiment: Jak2-mediated phosphorylation of STAT5 in blood cells after Aranesp stimulation; type: in vivo, C57B1/6 mice; settings: co-treatment 60 mg/kg p.o., stimulation by Aranesp
[2] = molecular target: Jak2 (Homo sapiens, UniProt O60674)
[3] = system: LF01-SSB-induced lethality and visible hematuria; experiment: Suppression of LF01-SSB-induced lethality and visible hematuria by inhibitors; type: in vivo; settings: rats
[4] = system: LF01-SSB-induced toxicities; experiment: LF01-SSB-induced toxicities in rats with or without inhibitor pretreatment; type: in vivo
[5] = Treatment with Jak2 inhibitor alone, adverse effects (data not shown)
[6] = pre-treatment 1 hr prior to LF01-SSB 3 mg/kg IV

SMILES: NC(=O)c1cnc(NC(C2CC2)C2CC2)c2c1[nH]c1cc(-c3cnc(N)nc3)ccc12
- duration of profound suppression of Jak2-mediated phosphorylation of STAT5 in blood cells [1]: > 8 h
- IC50 [2]: 1 nM
- effect on LF01-SSB-induced lethality and visible hematuria ([3]; pre-dosed 1 hr before LF01-SSB 9 mpk IV, monitored 96 hr): completely prevented
- Rescue effect: Death, +inhibitor/−inhibitor ([3]; inhibitor 1 hr prior to LF01-SSB 9 mg/kg IV, deaths until 96 hr, animals with inhibitor/without inhibitor): 0/5
- Rescue effect: Red urine, +inhibitor/−inhibitor ([3]; inhibitor 1 hr prior to LF01-SSB 9 mg/kg IV, urine collected over 24 hr, animals with inhibitor/without inhibitor): 0/5
- effect on LF01-siRNA induction of IFNγ ([4]; plasma 3 hr post LF01-SSB dose): profound inhibition
- effect on LF01-siRNA induction of IL-6 ([4]; plasma 3 hr post LF01-SSB dose): profound inhibition
- effect on LF01-siRNA induction of MCP-1 ([4]; plasma 3 hr post LF01-SSB dose): profound inhibition
- effect on LF01-siRNA induction of TNFα ([4]; plasma 3 hr post LF01-SSB dose): moderate suppression
- effect on LF01-SSB toxic responses (cytokine induction, ALT and AST elevation, thrombocytopenia, elongation of aPTT, hepatic and splenic cell death) [4, 6]: suppressed all toxic responses
- lethality after pre-treatment [4, 6]: no death
- adverse effects of treatment alone [5]: no adverse effects
